According to ChEMBL document CHEMBL3585306, “Anti-HIV diarylpyrimidine-quinolone hybrids and their mode of action” (Bioorg Med Chem, 2015):

Columns and labels:
[1] = molecular target: Human immunodeficiency virus type 1 reverse transcriptase (Human immunodeficiency virus 1, UniProt Q72547); assay: Inhibition of wild-type HIV1 Reverse transcriptase p66/p51 assessed as relative fluorescence signal after 40 mins
[2] = Selectivity index, ratio of CC50 for mock-infected human MT4 cells to EC50 for HIV1 3B infected in human MT4 cells; type: toxicity, cell-based; details: mock-infected (CC50) and HIV1 3B infected (EC50)

Cc1cc(C#N)cc(C)c1Oc1nc(Nc2ccc(C#N)cc2)nc(N)c1Br [ETRAVIRINE]
IC50 [1]: 11 nM | selectivity ratio [2]: 7500
